High-throughput results from PubChem.
Yeast UUG start – alters start codon recognition fidelity in yeast | S. cerevisiae UUG-firefly luciferase reporter, luminescence/redox ratio | activity score, % at 18.7 µM | 350,000 compounds, 0.13% hits | AID 602363;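 active = replicate mean at a twofold rise or more, about +100% in these data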;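 note: firefly luciferase made from a UUG start codon reports start codon fidelity; reporter light over untreated wells divided by growth signal over untreated wells; some hits fall short of that in this replicate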
MC4R ag barr – human MC4R agonism via beta-arrestin | U2OS MC4R beta-arrestin complementation, luminescence; percent of melanotan II response, DMSO zero | activation, % at 8.9 µM | actives 0.98% (n = 360,000) | P32245;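 active = activation above a per-plate cutoff, the mean activation of sample wells on that plate plus 3 SD, cut at about 8% in these data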
ALR inh – blocks human ALR sulfhydryl oxidase activity | inhibition, % (no concentration beside the values) | 3.8% of 290,000 active | purified ALR, DTT oxidation, H2O2 HRP-luminol luminescence | AID 485317 | P55789;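 active = mean and each replicate at 75% or more; inconclusive = only one of the two met; inactive = neither met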;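 also: stock transfer was 7.5 nL into about 7.5 µL; 0% = neutral wells and 100% = wells with inactivated enzyme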
NALP1 yeast inh – blocks the NALP1 inflammasome reconstituted in yeast. S. cerevisiae NALP1/ASC/caspase-1 growth, X-gal OD620, 72 h. actives 0.61% (n = 280,000). inhibition, % at 10 µM. AID 2071; in the data active = inhibition mostly above about 24%, no sharp cut-off; inactive = mostly below about 32%
MC4R antag cAMP – human MC4R antagonism in cAMP assay; P32245; MC4R-expressing cells, MTII-stimulated cAMP, LANCE TR-FRET; inhibition, % at 6.5 µM; actives 0.48% (n = 360,000); AID 540295;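 active = inhibition above its plate's cutoff, the mean of tested wells on that plate plus 3 SD, cut at about 29% in these data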;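 also: 0% = Melanotan II alone and 100% = Melanotan II plus saturating MCL0020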
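Material: human MC4R-expressing U2OS cells. Probe or stimulus: Melanotan II challenge. Dosing: 6.5 µM single dose. Times: 30-min compound, 1-h challenge, 1-h detection, room temperature. Technique: TR-FRET with Eu-cAMP and labeled anti-cAMP, 671 nm. Replication: singlicate.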
HDAC3 inhib – blocks human histone deacetylase 3 | O15379 | recombinant HDAC3, fluorogenic peptide/trypsin coupled, fluorescence | inhibition, % at 8.3 µM | actives 0.15% (n = 320,000); in the data active = inhibition above about 26%, passing the limit was not always enough; inconclusive = no clear call, values can overlap the other calls
MC4R barr conf – human MC4R beta-arrestin agonism confirmation; shares compounds with MC4R ag barr; U2OS MC4R beta-arrestin recruitment, luminescence; scaled DMSO 0%, Melanotan II 100%; activation, % at 8.9 µM; actives 31% (n = 2,400);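 active = mean activation across replicates above the hit cutoff set in the earlier primary screen, cut at about 8% in these data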
MOR DOR agonist – counter-screen for MC4R agonists: agonists of mu-delta opioid heterodimer | shares compounds with MC4R ag barr | U2OS PathHunter beta-arrestin, beta-gal luminescence; percent of deltorphin B response, DMSO zero | activation, % at 9.2 µM | actives 5.8% (n = 2,400) | AID 602194;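 active = mean activation across replicates exceeds the hit threshold derived in the earlier primary screen, cut at about 18% in these data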;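 also: 100% = deltorphin B at 0.9 µM final and 0% = DMSO alone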
The depositor's hits bear a star; ? = inconclusive; . = no result given; ! = not confirmed by another sample. Only some compounds are listed: those with a hit (about 4.2% of all), similar ones and a draw of the others.

| compound | Yeast UUG start | MC4R ag barr | ALR inh | NALP1 yeast inh | MC4R antag cAMP | HDAC3 inhib | MC4R barr conf | MOR DOR agonist |
| --- | --- | --- | --- | --- | --- | --- | --- | --- |
| COc1cccc(C(=O)Nc2nnc(-c3cccs3)s2)c1 | -16 | 15* | -5 | 4 | -3 | -11 | 0 | 4 |
| C/C=C/c1cnc2c(c1)C(=O)N([C@@H](C)CO)C[C@@H](C)[C@@H](CN(C)C(=O)NC1CCCC1)O2 | 4 | . | . | . | . | . | . | . |
| Cc1csc(NC(=O)c2ccc(OCC3CCCO3)cc2)n1 (stereo not drawn) | -42 | -1 | -5 | -4 | 9 | 2 | . | . |
| O=C(Nc1nc(-c2ccc(F)c(F)c2)cs1)c1ccc(OCC2CCCO2)cc1 (stereo not drawn) | . | 17* | -25 | 30 | 1 | 4 | 3 | 28* |
| C[C@H](CO)N1C[C@H](C)[C@H](CN(C)Cc2ccncc2)Oc2c(NS(=O)(=O)c3cn(C)cn3)cccc2C1=O | -17 | . | . | . | . | . | . | . |
| O=C(COc1ccc(-c2ccccc2)cc1)N/N=C/c1cc(O)ccc1Br | . | 37* | -1 | 28 | 0 | 8 | 13* | 5 |
| Oc1cccc(C(=S)N2CCC(Cc3ccccc3)CC2)c1 | -26 | 10* | 2 | -5 | 0 | -2 | 6 | 11 |
| Oc1cccc(C(=S)N2CCN(Cc3ccccc3)CC2)c1 | -10 | -2 | 19 | 33 | -2 | 1 | . | . |
| O=C(COC(=O)C1CCN(c2ccc(C(F)(F)F)cn2)CC1)Nc1cccc(F)c1 | -10 | 13* | -5 | . | 8 | -1 | -2 | 6 |
| Cc1ccc(NC(=O)COC(=O)C2CCN(c3ccc(C(F)(F)F)cn3)CC2)cc1C | 5 | 4 | 2 | . | -3 | 1 | . | . |
| O=C1CC(SC(=Nc2ccccc2)Nc2ccccc2)C(=O)N1c1ccc(Cl)cc1 (stereo not drawn) | -16 | 12* | 0 | 28 | 11 | -8 | -1 | 9 |
| Cc1ccc(C(=O)Nc2cccc(C(F)(F)F)c2)cc1NC(=O)c1nccnc1N | -3 | 17* | -8 | . | -18 | -4 | 8 | 44*! |
| O=C(CN1CCOCC1)Nc1cccc(C(=O)Nc2cccc(C(F)(F)F)c2)c1 | 0 | -3 | -2 | 28 | 3 | -2 | . | . |
| CCCCCNCC(=O)Nc1cccc(C(=O)Nc2cccc(C(F)(F)F)c2)c1 | . | 15* | -115 | 12 | -5 | -2 | 16* | 14 |
| C[C@@H]1CN([C@H](C)CO)C(=O)c2cccc(NS(=O)(=O)c3ccc(Cl)cc3)c2O[C@@H]1CN(C)Cc1ccccc1 | 3 | . | . | . | . | . | . | . |
| O=S(=O)(N(Cc1ccccc1)[C@H](CO)Cc1ccccc1)N(Cc1ccccc1)[C@H](CO)Cc1ccccc1 | -10 | 28* | -2 | . | 14 | 0 | 7 | 6 |
| CC(C)C[C@@H](CO)N(Cc1ccccc1)S(=O)(=O)N(Cc1ccccc1)[C@H](CO)CC(C)C | 0 | 0 | -7 | . | 17 | 2 | . | . |
| Cc1ccccc1N/C(SCc1cccc(Br)c1)=C(/C#N)C(N)=O | . | 23* | 3 | 26 | 11 | -4 | 2 | 9 |
| O=C(COc1cc(Cl)c(Cl)cc1Cl)Nc1cccc(O)c1 | . | 20* | -7 | 18 | 23 | 3 | 7 | 9 |
| O=C(COc1cc(Cl)c(Cl)cc1Cl)Nc1ccncc1 | -14 | 3 | -5 | 2 | 16 | 0 | . | . |
| CSc1nc(N)nc(SCC(=O)c2ccc(C)cc2)c1C#N | -23 | 21* | . | -8 | -16 | -1 | 22* | 4 |
| O=C(/C=C/c1cccc(Br)c1)N1CCN(c2cccc(C(F)(F)F)c2)CC1 | -16 | -1 | -1 | 19 | 10 | 0 | . | . |
| O=C(/C=C/c1ccc(Br)cc1)N1CCN(c2cccc(C(F)(F)F)c2)CC1 | . | 14* | -6 | 33 | 11 | -8 | -3 | 5 |
| O=C(C[C@@H]1CC[C@H]2[C@@H](COC[C@H](O)CN2C(=O)Nc2cc(Cl)cc(Cl)c2)O1)N1CCCCC1 | 5 | . | . | . | . | . | . | . |

Sorted by value in MC4R barr conf (largest number first): some entries from above
SMILES | MC4R barr conf
CSc1nc(N)nc(SCC(=O)c2ccc(C)cc2)c1C#N | 22*
CCCCCNCC(=O)Nc1cccc(C(=O)Nc2cccc(C(F)(F)F)c2)c1 | 16*
Cc1ccccc1N/C(SCc1cccc(Br)c1)=C(/C#N)C(N)=O | 2

Next part:
| compound | Yeast UUG start | MC4R ag barr | ALR inh | NALP1 yeast inh | MC4R antag cAMP | HDAC3 inhib | MC4R barr conf | MOR DOR agonist |
| --- | --- | --- | --- | --- | --- | --- | --- | --- |
| OC(c1ccc(-c2ccccc2)cc1)c1ncc(-c2ccc(F)cc2)[nH]1 (stereo not drawn) | -13 | 10* | . | . | 8 | . | 7 | 15 |
| OC(c1cccc(F)c1)c1ncc(-c2ccc(Oc3ccccc3)cc2)[nH]1 (stereo not drawn) | -26 | 10* | . | . | 17 | . | 4 | 10 |
| CC(C)NC(=O)Nc1ccc2c(c1)C(=O)N([C@H](C)CO)C[C@H](C)[C@@H](CN(C)S(=O)(=O)c1ccccc1)OCCCC[C@H](C)O2 | -2 | . | . | . | . | . | . | . |
| CC1CC(C)CN(C(=S)Nc2ccc(SC(F)F)cc2)C1 (stereo not drawn) | . | 24* | -5 | 22 | 12 | 6 | 5 | 11 |
| CC1CN(C(=S)Nc2ccc(SC(F)F)cc2)CC(C)O1 (stereo not drawn) | -9 | -1 | 3 | 2 | 1 | -8 | . | . |
| c1ccc(Cc2nnc(-c3ccccc3)o2)cc1 | -15 | 15* | 1 | 3 | 4 | 3 | 25* | 19* |
| Brc1ccc(-c2nnc(Cc3ccccc3)o2)cc1 | -10 | 4 | -6 | -1 | 6 | 8 | . | . |
| Cc1ccccc1/C=N/NC(=O)c1sccc1C | -18 | -2 | -27 | 28 | -2 | 14 | . | . |
| COc1ccc(/C=N/NC(=O)c2sccc2C)c2ccccc12 | . | 19* | -12 | . | -3 | 0 | 11* | 8 |
| CCOC(=O)c1[nH]c2cc(OC)c(OC)cc2c1NC(=O)c1ccc2c(c1)OCO2 | . | 26* | -2 | 22 | -19 | -1 | 2 | 3 |
| Clc1ccc(Nc2nc3ccccc3n3nnnc23)cc1 | -11 | 6 | -8 | 4 | 3 | 4 | . | . |
| Fc1cc(Br)ccc1Nc1nc2ccccc2n2nnnc12 | -20 | 14* | 22 | 12 | -1 | -2 | 9.6* | 5 |

3 entries from above, arranged by SMILES length, largest number first.
| compound | Yeast UUG start | MC4R ag barr | ALR inh | NALP1 yeast inh | MC4R antag cAMP | HDAC3 inhib | MC4R barr conf | MOR DOR agonist |
| --- | --- | --- | --- | --- | --- | --- | --- | --- |
| Fc1cc(Br)ccc1Nc1nc2ccccc2n2nnnc12 | -20 | 14* | 22 | 12 | -1 | -2 | 9.6* | 5 |
| Clc1ccc(Nc2nc3ccccc3n3nnnc23)cc1 | -11 | 6 | -8 | 4 | 3 | 4 | . | . |
| c1ccc(Cc2nnc(-c3ccccc3)o2)cc1 | -15 | 15* | 1 | 3 | 4 | 3 | 25* | 19* |

Next part.
| compound | Yeast UUG start | MC4R ag barr | ALR inh | NALP1 yeast inh | MC4R antag cAMP | HDAC3 inhib | MC4R barr conf | MOR DOR agonist |
| --- | --- | --- | --- | --- | --- | --- | --- | --- |
| N#Cc1sc2nc(-c3cccs3)cc(-c3ccc(F)cc3)c2c1N | -13 | 35* | -25 | 27 | 26 | ? | 19* | 6 |
| CS(=O)(=O)c1sc2nc(-c3cccs3)cc(-c3ccccc3)c2c1N | . | -1 | 3 | 1 | 9 | 8 | . | . |
| O=C(Nc1ccc(-c2nc3ccccc3[nH]2)cc1)c1ccccc1NS(=O)(=O)c1ccc(F)cc1 | -7 | 15* | . | 21 | 25 | -63 | 6 | 2 |
| CS(=O)(=O)c1ccccc1C(=O)Nc1ccc(-c2nc3ccccc3[nH]2)cc1 | -7 | -2 | -7 | -6 | -1 | 4 | . | . |
| CCCCn1c(=O)c(CCC(=O)OCC(=O)Nc2ccc(F)c(Cl)c2)nc2ccccc21 | -16 | 10* | -29 | . | 9 | 13 | 6 | 4 |
